The values below come from ChEMBL document CHEMBL4190239, “A novel structural class of coumarin-chalcone fibrates as PPARα/γ agonists with potent antioxidant activities: Design, synthesis, biological evaluation and molecular docking studies” (Eur J Med Chem, 2017).

Protein sequences, listed by entry. Tags and fused reporters are not part of them. Lines headed by an entry give the natural chain unless they say otherwise; changes in a name come on top.
UniProt P37231: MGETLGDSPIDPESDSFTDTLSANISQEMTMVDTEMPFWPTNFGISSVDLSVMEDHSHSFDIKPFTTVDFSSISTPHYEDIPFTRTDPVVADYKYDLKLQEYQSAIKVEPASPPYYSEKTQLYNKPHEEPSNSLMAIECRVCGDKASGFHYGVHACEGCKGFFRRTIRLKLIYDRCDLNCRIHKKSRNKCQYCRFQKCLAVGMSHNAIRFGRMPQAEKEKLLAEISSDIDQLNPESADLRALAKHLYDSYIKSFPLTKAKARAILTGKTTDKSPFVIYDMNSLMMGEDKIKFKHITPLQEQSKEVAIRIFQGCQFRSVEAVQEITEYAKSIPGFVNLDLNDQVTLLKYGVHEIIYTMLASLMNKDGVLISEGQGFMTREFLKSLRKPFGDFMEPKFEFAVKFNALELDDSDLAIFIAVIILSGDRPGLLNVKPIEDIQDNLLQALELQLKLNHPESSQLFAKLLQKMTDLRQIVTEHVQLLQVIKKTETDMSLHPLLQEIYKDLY

This experiment has as its target Peroxisome proliferator-activated receptor gamma (Homo sapiens, UniProt P37231). Kind of experiment: Agonist activity at GAL4-fused PPARgamma LBD (unknown origin) expressed in HEK293 cells assessed as receptor transactivation at 10 uM after 18 hrs by dual luciferase reporter gene assay. Type of experiment: cell-based. On the technique in general: A reporter such as luciferase makes a cellular process visible.
In the case of `CCOC(=O)C(C)(C)Oc1ccc(C(=O)C2Cc3ccccc3OC2=O)cc1` (centres undefined), the fold change (FC) came out at 1.31.

With `CC(C)(Oc1ccc(C(=O)c2cc3c(ccc4ccccc43)oc2=O)cc1)C(=O)O`, the fold change (FC) came to 1.3.

On to `CCOC(=O)C(C)(C)Oc1ccc(C(=O)c2cc3cc(F)ccc3oc2=O)cc1`, for which the fold change (FC) amounted to 1.19.

For `CCOC(=O)C(C)(C)Oc1ccc(C(=O)c2cc3cc(N)ccc3oc2=O)cc1`, the fold change (FC) amounted to 0.88.
